These are literature values, as cited in US6073962A (priority 1994, dated 2000).

The subject of the data set is mouse. The settings on record: literature value, British J. Pharmacol., Vol. 1, 1 (1949); cited from earlier work.

In the case of sodium azide, the LD50 level is recorded as 27 mg/kg.
